Test results taken from US12414932B2, “Arsinothricin and methods of treating infections using arsinothricin” (priority 2018, dated 2025).

Protein sequences, listed by entry. Tags and fused reporters are not part of them. Lines headed by an entry give the natural chain unless they say otherwise; changes in a name come on top. Residues count along the entry.
UniProt Q88LK7, 1-186: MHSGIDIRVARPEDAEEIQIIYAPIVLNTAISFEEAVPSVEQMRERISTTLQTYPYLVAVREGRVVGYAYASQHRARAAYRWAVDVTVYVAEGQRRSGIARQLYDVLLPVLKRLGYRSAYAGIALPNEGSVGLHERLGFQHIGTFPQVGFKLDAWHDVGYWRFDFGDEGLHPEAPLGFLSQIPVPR
UniProt Q57146: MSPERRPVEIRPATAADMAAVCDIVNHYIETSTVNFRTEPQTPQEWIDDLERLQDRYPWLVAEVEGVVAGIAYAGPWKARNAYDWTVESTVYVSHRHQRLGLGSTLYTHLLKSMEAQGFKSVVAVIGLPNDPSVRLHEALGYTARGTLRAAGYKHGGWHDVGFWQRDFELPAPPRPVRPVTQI
UniProt P0A9C5, 2-469: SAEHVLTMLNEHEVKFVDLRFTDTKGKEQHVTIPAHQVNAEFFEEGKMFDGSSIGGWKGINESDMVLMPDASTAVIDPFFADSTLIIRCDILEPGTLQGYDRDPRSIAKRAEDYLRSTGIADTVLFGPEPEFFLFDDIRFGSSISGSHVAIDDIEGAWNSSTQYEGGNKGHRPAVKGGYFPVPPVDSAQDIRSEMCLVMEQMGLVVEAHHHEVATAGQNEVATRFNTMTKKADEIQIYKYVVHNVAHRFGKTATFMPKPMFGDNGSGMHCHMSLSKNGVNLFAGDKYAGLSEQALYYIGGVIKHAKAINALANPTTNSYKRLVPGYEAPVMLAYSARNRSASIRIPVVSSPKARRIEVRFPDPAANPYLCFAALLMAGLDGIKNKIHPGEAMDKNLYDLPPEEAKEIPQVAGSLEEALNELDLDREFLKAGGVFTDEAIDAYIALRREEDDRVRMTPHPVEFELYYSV

What was measured:
PpArsN1 = PpArsN1 (Pseudomonas putida, UniProt Q88LK7)
[1] = test system: wild type P. putida KT2440
P. putida Aars1,2 = format: cell-based, Pseudomonas putida
[2] = test system: E. coli AW3110 bearing plasmid carrying PparsN1
[3] = target: phosphinothricin N-acetyltransferase (SvPAT) (Streptomyces viridochromogenes, UniProt Q57146); assay: N-acetyltransferase assay (DTNB) with SvPAT; format: biochemical, Streptomyces viridochromeogenes
[4] = target: glutamine synthetase (GS) from E. coli (Escherichia coli, UniProt P0A9C5); conditions: purified E. coli GS, 37° C., mean±SE (n=3)
E. coli AW3110 = format: cell-based, Escherichia coli
[5] = test system: carbapenem-resistant Enterobacter cloacae (ATCC BAA-2341)

Compound | Kcat (PpArsN1; as substrate of PpArsN1) [s⁻¹] | Km (PpArsN1; as substrate of PpArsN1) [µM] | resistance or sensitivity of the strain [1] | resistance or sensitivity of the strain (P. putida Aars1,2) | resistance or sensitivity of the strain [2] | affinity and catalytic efficiency of SvPAT compared with PpArsN1 [3] | catalytic efficiency (Kcat/Km) compared with PT (PpArsN1) [fold] | Ki [4] [nM] | resistance or sensitivity of the strain (E. coli AW3110) | growth inhibition of carbapenem-resistant E. cloacae [5]
CP(=O)(O)CCC(N)C(=O)O (racemic) [PT, phosphinothricin, reference compound] | 9.6 ± 0.9 | 1000 ± 200 | resistance | sensitive | confers resistance | two orders of magnitude higher affinity | – | – | – | –
C[As](=O)(O)CC[C@H](N)C(=O)O [AST, 2-amino-4-(hydroxymethylarsinoyl) butanoate] | – | – | resistant | sensitive | confers resistance | – | 15 | 300 ± 50 | similarly sensitive | effectively inhibited the growth
